Rows were chosen to be rich in hits. Some 16% of all compounds tested hit in one or more screens of this group.
DT40 TDP1 CPT: growth inhibition of DT40 Tdp1-/-;hTDP1 cells with camptothecin (screen for TDP1 inhibitors) | chicken DT40 Tdp1-/-;hTDP1 cells + 20 nM CPT, ATP luminescence, 48 h | Potency, µM (titrated, usually from 46.2 µM), usual class: inhibitors | 12% of 420,000 active; further: nearly all actives have a fitted effect of over 55% in size
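Chicken DT40 Tdp1-/- cells complemented with human TDP1, 400 cells/well, exposed to compounds plus 20 nM camptothecin for at least 48 h at 37 C; viability read as ATP content by CellTiter-Glo luminescence.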
uPA generation: blocks generation of uPA at the cell surface | cell surface uPA generation assay, qHTS | Potency, µM (top dose mostly 38.3 µM), actives largely listed as inhibitors | 0.31% of 330,000 active; active means well fitted inhibition curve with a large enough effect; inconclusive means small, poorly fitted or top-dose-only effect; inactive means no such curve, though single readings can be large or run the other way; tested in mouse RAW 264.7 cells; further: nearly all actives have a fitted effect of over 55% in size
TDP1 inh: inhibitors of human tyrosyl-DNA phosphodiesterase TDP1; AID 485290; recombinant TDP1, AlphaScreen DNA substrate cleavage; 0.28% of 350,000 active; Potency, µM (highest dose often 130 µM), most hits filed as inhibitors; further: nearly all actives have a fitted effect of over 40% in size
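Tdp1 1 nM final; 15 min RT w/ cpd; substrate 15 nM, 5 min; beads 10 ug/ml, 10 min; AlphaScreen read. Neg ctrl: no enzyme.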
DT40 TDP1 no CPT: qHTS for Inhibitors of human tyrosyl-DNA phosphodiesterase 1 (TDP1): qHTS in cells in absence of CPT; DT40 Tdp1-/- hTDP1 cells, no CPT, ATP luminescence, 48 h; 15% of 420,000 active; Potency, µM (titrated, usually from 46.2 µM), usual class: inhibitors; AID 686978, 2013; further: nearly all actives have a fitted effect of over 55% in size
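Cells were dispensed at 400 per well, compounds added by pin tool, plates incubated ≥48 hr at 37 °C, then CellTiter-Glo added for 30 min at room temperature before luminescence reading. Line: DT40 Tdp1-/- complemented with hTDP1; camptothecin omitted.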
miR-21 reporter: raises the signal of a miR-21 reporter | HeLa miR-21 FLuc reporter, luciferase, 48 h | 340,000 tested, under 10 active | Potency, µM (titrated, usually from 38.3 µM); active = well fitted rising curve with a large enough effect; inconclusive = small, poorly fitted or top-dose-only effect; inactive = no such curve, though single readings can be large or run the other way;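 further: miR-21 action dims this reporter so a rising signal means less miR-21 action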
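HeLa cells endogenously expressing miR-21, stably carrying CMV-driven firefly luciferase with a downstream miR-21 binding site, 2000 cells/well. Titrations up to approximately 40 uM, 48 hours; luciferase luminescence read.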
Hits are given with their value; [ ] = another dose, or the depositor's remark. Unless noted, the call rests on the fitted dose curve; in most records, active means well fitted curve in the direction sought with a large enough effect; inconclusive means small, poorly fitted or top-dose-only effect, or another doubt; inactive means no such curve, though single readings can be large; an effect the other way counts as inactive or inconclusive.

Screening CCc1ccc(NC(=O)C2CCCN(S(=O)(=O)c3cccc4cccnc34)C2)cc1 (stereo unspecified) returned DT40 TDP1 CPT 18µM, TDP1 inh inactive, DT40 TDP1 no CPT 16µM and miR-21 reporter inactive.
`O=C1CSC(=S)N1/N=C/c1ccc(O)c(O)c1O` gave DT40 TDP1 CPT 26µM, uPA generation inactive, TDP1 inh inconclusive, DT40 TDP1 no CPT inconclusive and miR-21 reporter inactive.
`O=C(/C=C\c1ccc2c(c1)OCO2)NC1CC(=O)N(c2ccccc2)C1` (stereo unspecified) gave DT40 TDP1 CPT inactive, TDP1 inh inactive, DT40 TDP1 no CPT inactive and miR-21 reporter inactive.
`Cc1cc(C)cc(OCc2nnc(SCC(=O)NC3CC3)n2C)c1` gave DT40 TDP1 CPT inactive, uPA generation inactive, TDP1 inh inactive, DT40 TDP1 no CPT inactive and miR-21 reporter inactive.
`CN1CCN(CC(=O)N2c3ccccc3C(C)(c3ccccc3)CC2(C)C)CC1` (stereo unspecified) gave DT40 TDP1 CPT 16µM, uPA generation inactive, TDP1 inh inactive, DT40 TDP1 no CPT 18µM and miR-21 reporter inactive.
Cc1ccc2c(c1)N(C(=O)c1ccc(F)cc1)C(C)(C)CC2(C)c1ccccc1 (stereo unspecified) was read as DT40 TDP1 CPT inconclusive, TDP1 inh inactive[2.28 µM], DT40 TDP1 no CPT 21µM and miR-21 reporter inactive.
For Cc1nc(-c2ccc(C)c(N3CCN(C(=O)Nc4cccc(Cl)c4C)CC3)c2)no1 the results were DT40 TDP1 CPT inconclusive, TDP1 inh inactive, DT40 TDP1 no CPT 16µM and miR-21 reporter inactive.
`Cc1cc(=O)n2nc(N3CCC(C(=O)NCc4ccc(F)cc4)CC3)sc2n1` gave DT40 TDP1 CPT inactive, uPA generation inactive, TDP1 inh inactive, DT40 TDP1 no CPT inactive and miR-21 reporter inactive.
O=C(O)C1CCCN(S(=O)(=O)c2ccccc2[N+](=O)[O-])C1 (stereo unspecified) was read as DT40 TDP1 CPT inactive, uPA generation inactive, DT40 TDP1 no CPT inactive and miR-21 reporter inactive.
`COc1ccc(NC(=O)c2cccc(-n3c(C)ccc3C)c2)c(OC)c1` gave DT40 TDP1 CPT inconclusive, uPA generation inactive, TDP1 inh inactive, DT40 TDP1 no CPT 26µM and miR-21 reporter inactive.
For Cc1cc(C=O)c(C)n1-c1cccc(C(=O)O)c1 the results were DT40 TDP1 CPT inactive, uPA generation inactive, TDP1 inh 5µM, DT40 TDP1 no CPT inactive and miR-21 reporter inactive.
Cc1ccc(C)n1-c1cccc(C(=O)Nc2ccccc2)c1 was read as DT40 TDP1 CPT inconclusive, uPA generation inactive, DT40 TDP1 no CPT 15µM and miR-21 reporter inactive.
Screening Cc1ccc2cc(C(c3nnnn3Cc3ccccc3)N3CCc4ccccc43)c(=O)[nH]c2c1C (stereo unspecified) returned DT40 TDP1 CPT inconclusive, uPA generation inactive, TDP1 inh inactive, DT40 TDP1 no CPT inconclusive and miR-21 reporter inactive.
CCCn1c(=O)sc2cc(NC(=O)COc3ccc(Cl)cc3)ccc21 was read as DT40 TDP1 CPT inconclusive, TDP1 inh inactive, DT40 TDP1 no CPT inconclusive and miR-21 reporter inactive.
For COc1ccc(-c2nnc(SCC(=O)Nc3ccc(C(C)=O)cc3)nc2-c2ccc(OC)cc2)cc1 the results were DT40 TDP1 CPT 12µM, TDP1 inh inactive, DT40 TDP1 no CPT 10µM and miR-21 reporter inactive.
For COc1ccc(-c2nnc(SCC(=O)Nc3cccc(Cl)c3C)nc2-c2ccc(OC)cc2)cc1 the results were DT40 TDP1 CPT inconclusive, TDP1 inh inactive, DT40 TDP1 no CPT 10µM and miR-21 reporter inactive.
Screening CC(=O)c1ccc(NC(=O)CSc2nnc(-c3ccco3)c(-c3ccco3)n2)cc1 returned DT40 TDP1 CPT inconclusive, uPA generation inactive, TDP1 inh inactive, DT40 TDP1 no CPT inactive and miR-21 reporter inactive.
`CC1SC2(NC1=O)C1CC3CC(C1)CC2C3` (stereo unspecified) gave DT40 TDP1 CPT inactive, uPA generation inactive, TDP1 inh inactive, DT40 TDP1 no CPT inactive and miR-21 reporter inactive.
`NC(=O)Cc1ncc(C(F)(F)F)cc1Cl` gave DT40 TDP1 CPT inactive, uPA generation inactive, DT40 TDP1 no CPT inactive and miR-21 reporter inactive.

Screening data as filed in PubChem.
